Data as given in US20100292169A1, “METHODS AND COMPOSITIONS FOR REGULATING HDAC6 ACTIVITY” (Duke University, priority 2005, published 2010).

Target: T1, HDAC6-Hsp90 interaction (Homo sapiens, UniProt Q9UBN7)
T1 construct: endogenous HDAC6 and Hsp90 can be abundantly and specifically co-immunoprecipitated from multiple cell lines; endogenous in cells; host or cells: A549
T1 sequence (Q9UBN7 1-1215): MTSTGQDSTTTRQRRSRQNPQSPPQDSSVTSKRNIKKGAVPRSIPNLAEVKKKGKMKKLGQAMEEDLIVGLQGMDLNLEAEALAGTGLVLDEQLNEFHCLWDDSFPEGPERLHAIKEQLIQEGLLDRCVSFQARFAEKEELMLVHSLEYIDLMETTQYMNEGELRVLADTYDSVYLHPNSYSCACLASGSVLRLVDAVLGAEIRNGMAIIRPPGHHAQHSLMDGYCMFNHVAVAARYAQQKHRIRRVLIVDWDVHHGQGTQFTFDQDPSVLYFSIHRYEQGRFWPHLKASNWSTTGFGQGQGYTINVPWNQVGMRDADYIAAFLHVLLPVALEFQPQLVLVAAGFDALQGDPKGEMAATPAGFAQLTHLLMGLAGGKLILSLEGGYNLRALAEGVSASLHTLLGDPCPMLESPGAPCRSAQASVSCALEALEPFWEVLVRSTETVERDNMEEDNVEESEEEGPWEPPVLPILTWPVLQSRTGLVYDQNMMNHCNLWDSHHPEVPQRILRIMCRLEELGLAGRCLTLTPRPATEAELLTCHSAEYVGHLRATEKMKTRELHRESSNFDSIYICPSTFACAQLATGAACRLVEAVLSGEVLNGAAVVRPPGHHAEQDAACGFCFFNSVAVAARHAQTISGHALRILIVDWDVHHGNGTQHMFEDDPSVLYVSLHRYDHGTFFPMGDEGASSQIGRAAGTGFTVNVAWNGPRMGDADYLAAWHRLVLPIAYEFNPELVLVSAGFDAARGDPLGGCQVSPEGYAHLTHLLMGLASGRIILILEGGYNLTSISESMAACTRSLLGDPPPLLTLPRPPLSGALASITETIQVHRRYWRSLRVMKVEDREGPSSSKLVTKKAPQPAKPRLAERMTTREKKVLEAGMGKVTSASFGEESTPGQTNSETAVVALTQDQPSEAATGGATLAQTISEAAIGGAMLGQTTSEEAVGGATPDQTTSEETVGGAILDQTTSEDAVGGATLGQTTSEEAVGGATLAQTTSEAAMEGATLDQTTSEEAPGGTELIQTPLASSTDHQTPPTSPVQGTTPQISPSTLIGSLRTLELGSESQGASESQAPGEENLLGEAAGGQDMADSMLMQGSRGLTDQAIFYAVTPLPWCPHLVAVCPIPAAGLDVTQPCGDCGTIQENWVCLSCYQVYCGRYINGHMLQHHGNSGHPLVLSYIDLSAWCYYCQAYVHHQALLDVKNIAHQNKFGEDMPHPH
Assay: HDAC6-Hsp90 co-immunoprecipitation in A549 cells
Format: cell-based
Settings: 4 hour treatment, 1 μM

For `CC(/C=C/C(=O)NO)=C\[C@@H](C)C(=O)c1ccc(N(C)C)cc1` [trichostatin A], the “association of HDAC6 with Hsp90” value was “dissociation of HDAC6 from Hsp90”.
